Data published in patent publication US11111252B2, “Pyrimidine compounds and pyrimido indole compounds and methods of use” (Duquesne University of the Holy Spirit, priority 2014, dated 2021).

Test system: NCl/ADR-RES
Assay: Effect of Pgp on drug sensitivity, Pgp overexpressing line (SRB assay)
Format: cell-based, human
Conditions: IC50 of Pgp overexpressing line divided by IC50 of parental line; cell SK-OV-3 MDR-1-6/6

COc1ccc(Sc2[nH]c3nc(N)nc(N)c3c2C)cc1OC
Rr: less than 1
